Assay results published in patent US20240360082A1, “SUBSTITUTED PYRIDONE COMPOUNDS USEFUL TO TREAT ORTH[…]” (priority 2021, published 2024).
Like-named read-outs stand apart in the source and are kept apart here.

System: influenza virus (multiple flu strains)
Assay: organism not typed
Conditions: MDCK
[1] = read-out: NA Alaska H3N2, NA assay, Alaska H3N2 strain
[2] = read-out: NA CAL H1N1, NA assay, CAL H1N1 strain

Compound | IC50 [1] | IC50 [2]
NC(=O)c1cc(-c2ccc(OCc3ncccc3F)cc2)c(C(F)(F)F)[nH]c1=O [Example 114, 5-(4-((3-fluoropyridin-2-yl)methoxy)phenyl)-2-oxo-6-(trifluoromethyl)-1,2-dihydropyridine-3-carboxamide] | 0.1 to 1 µM | 1 to 5 µM
NC(=O)c1cc(-c2ccc(OCc3cccs3)cc2)c(C(F)(F)F)[nH]c1=O [Example 115, 2-oxo-5-(4-(thiophen-2-ylmethoxy)phenyl)-6-(trifluoromethyl)-1,2-dihydropyridine-3-carboxamide] | 0.1 to 1 µM | 1 to 5 µM
NC(=O)c1cc(-c2ccc(OCc3cc(F)ccc3F)cc2)c(C(F)(F)F)[nH]c1=O [Example 116, 5-(4-((2,5-difluorobenzyl)oxy)phenyl)-2-oxo-6-(trifluoromethyl)-1,2-dihydropyridine-3-carboxamide] | 1 to 5 µM | 0.1 to 1 µM
NC(=O)c1cc(-c2ccc(OCc3cc(Cl)ccn3)cc2)c(C(F)(F)F)[nH]c1=O [Example 117, 5-(4-((4-chloropyridin-2-yl)methoxy)phenyl)-2-oxo-6-(trifluoromethyl)-1,2-dihydropyridine-3-carboxamide] | 0.1 to 1 µM | 0.01 to 0.1 µM
Cc1nc(C)c(COc2ccc(-c3cc(C(N)=O)c(=O)[nH]c3C(F)(F)F)cc2)s1 [Example 118, 5-(4-((2,4-dimethylthiazol-5-yl)methoxy)phenyl)-2-oxo-6-(trifluoromethyl)-1,2-dihydropyridine-3-carboxamide] | 1 to 5 µM | 5 to 10 µM
NC(=O)c1cc(-c2ccc(OCc3cccnc3Cl)cc2)c(C(F)(F)F)[nH]c1=O [Example 119, 5-(4-((2-chloropyridin-3-yl)methoxy)phenyl)-2-oxo-6-(trifluoromethyl)-1,2-dihydropyridine-3-carboxamide] | 0.1 to 1 µM | 0.1 to 1 µM
CCCNc1cncc(COc2ccc(-c3cc(C(N)=O)c(=O)[nH]c3C(F)(F)F)cc2)c1 [Example 120, 2-oxo-5-(4-((5-(propylamino)pyridin-3-yl)methoxy)phenyl)-6-(trifluoromethyl)-1,2-dihydropyridine-3-carboxamide] | 0.01 to 0.1 µM | 0.1 to 1 µM
NC(=O)c1cc(-c2ccc(OCc3ncccn3)cc2)c(C(F)(F)F)[nH]c1=O [Example 121, 2-oxo-5-(4-(pyrimidin-2-ylmethoxy)phenyl)-6-(trifluoromethyl)-1,2-dihydropyridine-3-carboxamide] | 0.1 to 1 µM | 1 to 5 µM
NC(=O)c1cc(-c2ccc(OCc3cnc(N4CCOCC4)nc3)cc2)c(C(F)(F)F)[nH]c1=O [Example 122, 5-(4-((2-morpholinopyrimidin-5-yl)methoxy)phenyl)-2-oxo-6-(trifluoromethyl)-1,2-dihydropyridine-3-carboxamide] | 0.1 to 1 µM | 10 to 25 µM
NC(=O)c1cc(-c2ccc(OCc3cnccn3)cc2)c(C(F)(F)F)[nH]c1=O [Example 123, 2-oxo-5-(4-(pyrazin-2-ylmethoxy)phenyl)-6-(trifluoromethyl)-1,2-dihydropyridine-3-carboxamide] | 0.01 to 0.1 µM | 0.1 to 1 µM
Cn1nccc1COc1ccc(-c2cc(C(N)=O)c(=O)[nH]c2C(F)(F)F)cc1 [Example 126, 5-(4-((1-methyl-1H-pyrazol-5-yl)methoxy)phenyl)-2-oxo-6-(trifluoromethyl)-1,2-dihydropyridine-3-carboxamide] | 0.1 to 1 µM | 1 to 5 µM
COc1ccnc(COc2ccc(-c3cc(C(N)=O)c(=O)[nH]c3C(F)(F)F)cc2)c1 [Example 127, 5-(4-((4-methoxypyridin-2-yl)methoxy)phenyl)-2-oxo-6-(trifluoromethyl)-1,2-dihydropyridine-3-carboxamide] | 1 to 5 µM | 1 to 5 µM
NC(=O)c1cc(-c2ccc(OCc3ccc(N4CCOCC4)nc3)cc2)c(C(F)(F)F)[nH]c1=O [Example 128, 5-(4-((8-morpholinopyridin-3-yl)methoxy)phenyl)-2-oxo-6-(trifluoromethyl)-1,2-dihydropyridine-3-carboxamide] | 1 to 5 µM | 25 to 50 µM
NC(=O)c1cc(-c2ccc(OCc3cccnc3F)cc2)c(C(F)(F)F)[nH]c1=O [Example 129, 5-(4-((2-fluoropyridin-3-yl)methoxy)phenyl)-2-oxo-6-(trifluoromethyl)-1,2-dihydropyridine-3-carboxamide] | 0.1 to 1 µM | 1 to 5 µM
COc1cc(COc2ccc(-c3cc(C(N)=O)c(=O)[nH]c3C(F)(F)F)cc2)c(F)cn1 [Example 130, 5-(4-((5-fluoro-2-methoxypyridin-4-yl)methoxy)phenyl)-2-oxo-6-(trifluoromethyl)-1,2-dihydropyridine-3-carboxamide] | 1 to 5 µM | 1 to 5 µM
NC(=O)c1cc(-c2ccc(OCc3ccc4nccnc4c3)cc2)c(C(F)(F)F)[nH]c1=O [Example 131, 2-oxo-5-(4-(quinoxalin-6-ylmethoxy)phenyl)-6-(trifluoromethyl)-1,2-dihydropyridine-3-carboxamide] | 0.1 to 1 µM | 5 to 10 µM

Compound | IC50 [1] | IC50 [2]
Cn1ncc2c(COc3ccc(-c4cc(C(N)=O)c(=O)[nH]c4C(F)(F)F)cc3)cccc21 [Example 132, 5-(4-((1-methyl-1H-indazol-4-yl)methoxy)phenyl)-2-oxo-6-(trifluoromethyl)-1,2-dihydropyridine-3-carboxamide] | 1 to 5 µM | 5 to 10 µM
CS(=O)(=O)c1ccc(COc2ccc(-c3cc(C(N)=O)c(=O)[nH]c3C(F)(F)F)cc2)cc1 [Example 133, 5-(4-((4-(methylsulfonyl)benzyl)oxy)phenyl)-2-oxo-6-(trifluoromethyl)-1,2-dihydropyridine-3-carboxamide] | 1 to 5 µM | 10 to 25 µM
NC(=O)c1cc(-c2ccc(OCc3cncs3)cc2)c(C(F)(F)F)[nH]c1=O [Example 134, 2-oxo-5-(4-(thiazol-5-ylmethoxy)phenyl)-6-(trifluoromethyl)-1,2-dihydropyridine-3-carboxamide] | 0.1 to 1 µM | 1 to 5 µM
Cc1cc(C)nc(COc2ccc(-c3cc(C(N)=O)c(=O)[nH]c3C(F)(F)F)cc2)c1 [Example 135] | 0.1 to 1 µM | 0.1 to 1 µM
COc1ncccc1COc1ccc(-c2cc(C(N)=O)c(=O)[nH]c2C(F)(F)F)cc1 [Example 136, 5-(4-((2-methoxypyridin-3-yl)methoxy)phenyl)-2-oxo-6-(trifluoromethyl)-1,2-dihydropyridine-3-carboxamide] | 1 to 5 µM | 1 to 5 µM
NC(=O)c1cc(-c2ccc(OCc3ccc4ccncc4c3)cc2)c(C(F)(F)F)[nH]c1=O [Example 137, 5-(4-(isoquinolin-7-ylmethoxy)phenyl)-2-oxo-6-(trifluoromethyl)-1,2-dihydropyridine-3-carboxamide] | 1 to 5 µM | 25 to 50 µM
NC(=O)c1cc(-c2ccc(OCc3ccc4cccnc4c3)cc2)c(C(F)(F)F)[nH]c1=O [Example 138, 2-oxo-5-(4-(quinolin-7-ylmethoxy)phenyl)-6-(trifluoromethyl)-1,2-dihydropyridine-3-carboxamide] | 1 to 5 µM | 10 to 25 µM
NC(=O)c1cc(-c2ccc(OCc3ccncc3F)cc2)c(C(F)(F)F)[nH]c1=O [Example 139, 5-(4-((3-fluoropyridin-4-yl)methoxy)phenyl)-2-oxo-6-(trifluoromethyl)-1,2-dihydropyridine-3-carboxamide] | 0.1 to 1 µM | 1 to 5 µM
Cc1cc(C)nc(COc2ccc(-c3cc(C(N)=O)c(=O)[nH]c3C(F)(F)F)cc2)n1 [Example 140, 5-(4-((4,6-dimethylpyrimidin-2-yl)methoxy)phenyl)-2-oxo-6-(trifluoromethyl)-1,2-dihydropyridine-3-carboxamide] | 1 to 5 µM | 5 to 10 µM
NC(=O)c1cc(-c2ccc(OCc3cccnc3N3CCOCC3)cc2)c(C(F)(F)F)[nH]c1=O [Example 142, 5-(4-((2-morpholinopyridin-3-yl)methoxy)phenyl)-2-oxo-6-(trifluoromethyl)-1,2-dihydropyridine-3-carboxamide] | 1 to 5 µM | 10 to 25 µM
NC(=O)c1cc(-c2ccc(OCc3nccs3)cc2)c(C(F)(F)F)[nH]c1=O [Example 143, 2-oxo-5-(4-(thiazol-2-ylmethoxy)phenyl)-6-(trifluoromethyl)-1,2-dihydropyridine-3-carboxamide] | 0.1 to 1 µM | 1 to 5 µM
COc1ccnc(COc2ccc(-c3cc(C(N)=O)c(=O)[nH]c3C(F)(F)F)cc2)c1OC [Example 144, 5-(4-((3,4-dimethoxypyridin-2-yl)methoxy)phenyl)-2-oxo-6-(trifluoromethyl)-1,2-dihydropyridine-3-carboxamide] | 1 to 5 µM | 5 to 10 µM
Cn1ncc2cc(COc3ccc(-c4cc(C(N)=O)c(=O)[nH]c4C(F)(F)F)cc3)ccc21 [Example 145, 5-(4-((1-methyl-1H-indazol-5-yl)methoxy)phenyl)-2-oxo-6-(trifluoromethyl)-1,2-dihydropyridine-3-carboxamide] | 5 to 10 µM | 25 to 50 µM
COc1cncc(COc2ccc(-c3cc(C(N)=O)c(=O)[nH]c3C(F)(F)F)cc2)c1 [Example 146, 5-(4-((5-methoxypyridin-3-yl)methoxy)phenyl)-2-oxo-6-(trifluoromethyl)-1,2-dihydropyridine-3-carboxamide] | 0.1 to 1 µM | 0.1 to 1 µM
Cc1cc(COc2ccc(-c3cc(C(N)=O)c(=O)[nH]c3C(F)(F)F)cc2)cc(C)n1 [Example 147, 5-(4-((2,6-dimethylpyridin-4-yl)methoxy)phenyl)-2-oxo-6-(trifluoromethyl)-1,2-dihydropyridine-3-carboxamide] | 1 to 5 µM | 10 to 25 µM
NC(=O)c1cc(-c2ccc(OCc3cc4c(cc3Cl)OCO4)cc2)c(C(F)(F)F)[nH]c1=O [Example 148, 5-(4-((6-chlorobenzo[d][1,3]dioxol-5-yl)methoxy)phenyl)-2-oxo-6-(trifluoromethyl)-1,2-dihydropyridine-3-carboxamide] | 1 to 5 µM | 5 to 10 µM
